{"source": "patent US20260274832A1", "about": "“COMPOUNDS AND THEIR USE IN TREATING CANCER” (ASTRAZENECA AB, priority 2023, published 2026)", "key": {"[1]": {"target": "AR (AR-full length) in LNCaP cells (Homo sapiens, UniProt P10275, T878A)", "test": "LNCaP Androgen Receptor Imaging Assay (immunofluorescence of endogenous nuclear AR)", "conditions": "read-out: LNCaP AR Degradation DC50, 24 h incubation, concentration giving 50% of maximum degradation of AR per curve fit, single experiment or average of two or more", "description": "This cell-based imaging assay uses immuno-fluorescence to measure endogenous nuclear AR staining in the prostate cancer cell line LNCaP (expressing AR-full length). The purpose of the assay is to identify compounds that regulate AR protein level according to the protocol laid out in the steps below.\nAll work was performed in a sterile tissue culture hood up to the point of cell fixation. LNCaP cells were cultured at 6-8×10^6 per T175 flask and split every 3-4 days. Medium: RPMI (R7638, VWR Sigma) containing 10% FCS and 1% glutamine. Cells were plated in black wall transparent bottom plates at a density of 12,000 cells (Cedex™ Cell counter, Beckmann & Coulter), 40 μL per well, using a Multidrop (ThermoFisher). […]\n(§1) The cells were incubated with a Mouse monoclonal Anti-AR antibody AR441 (DAKO M3562) (1:1000), diluted in modified blocking buffer (PBS+1% BSA+0.1% TritonX); 15 μL/well for 2 h at RT. […] Plates could be stored after staining for three days at 4° C. before read if required.\n(§2) Plates are read using a Cellomics Cellinsight to measure the Androgen Receptor level in each well. […] Down-regulation of AR is expressed as a DC50 value and determined by calculation of the concentration of compound that is required to give 50% of maximum degradation of AR as per the curve fit for that compound. The maximum degradation observed for each compound is expressed as Dmax. […]"}, "[2]": {"target": "AR (L702H) in LNCaP cells (Homo sapiens, UniProt P10275, L702H/T878A)", "test": "LNCaP Androgen Receptor L702H Imaging Assay (LNCaP cells engineered by CRISPR/Cas9)", "conditions": "LNCaP cells with AR L702H mutation, 24 h incubation", "description": "All work was performed in a sterile tissue culture hood up to the point of cell fixation. LNCaP cells were cultured at 6-8×10^6 per T175 flask and split every 3-4 days. Medium: RPMI (R7638, VWR Sigma) containing 10% FCS and 1% glutamine. Cells were plated in black wall transparent bottom plates at a density of 12,000 cells (Cedex™ Cell counter, Beckmann & Coulter), 40 μL per well, using a Multidrop (ThermoFisher).\nCells were dosed with test compound diluted in DMSO using an Echo 555/655™ (Labcyte) and the final concentration of DMSO in the well was 0.3%. A neutral control (DMSO) and a positive AR degrader control at 3 μM (a prior art AR PROTAC) were included. […]\nas §1, §2"}}, "data": [{"smiles": "COc1nc(N2CCC(CN3CCC(c4ccc(N5CCCC(c6ccc(Cl)c7c(C#N)c[nH]c67)C5)cc4)CC3)CC2)cc2c1C(=O)N(C1CCC(=O)NC1=O)C2", "note": "(single isomer, unassigned) [Example 98, 4-Chloro-7-[(3R*)-1-{4-[1-({1-[2-(2,6-dioxopiperidin-3-yl)-4-methoxy-3-oxo-2,3-dihydro-1H-pyrrolo[3,4-c]pyridin-6-yl]piperidin-4-yl}methyl)piperidin-4-yl]phenyl}piperidin-3-yl]-1H-indole-3-carbonitrile]", "values": [{"measurement": "DC50", "setting": "[1]", "value": "> 3", "unit": "µM"}, {"measurement": "LNCaP AR (L702H) Degradation Dmax", "setting": "[2]; maximum degradation observed, normalized as % of positive control", "value": 100, "unit": "%"}, {"measurement": "DC50", "setting": "[2]; read-out: LNCaP AR (L702H) Degradation DC50, concentration giving 50% of maximum degradation of AR (L702H) per curve fit", "value": 3.1, "unit": "µM"}]}]}
